We go through 54 molecules from PubChem BioAssay AID624204 (Sanford-Burnham Center for Chemical Genomics, 2012).

Amino acid sequences for entries named in this document (tags omitted). Residues count along the entry.
UniProt Q9P0U3, 419-644 limits assumed: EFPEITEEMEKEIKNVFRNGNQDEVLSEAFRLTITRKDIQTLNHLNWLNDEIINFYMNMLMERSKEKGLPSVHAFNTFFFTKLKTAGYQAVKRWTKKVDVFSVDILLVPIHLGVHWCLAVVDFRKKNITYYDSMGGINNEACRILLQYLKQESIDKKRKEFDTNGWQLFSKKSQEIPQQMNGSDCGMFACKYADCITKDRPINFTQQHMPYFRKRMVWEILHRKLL

This is a selection; strong and weak results do not stand in their true shares. The source made the active and inactive calls.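 Rule for the calls: active = inhibition at least 30% at 10 µM, raw YFP signal under a set limit, fluorescence ratio 0.5 to 1.5; inactive = the rest.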

The target of this assay is Sentrin-specific protease 1 (Homo sapiens) (UniProt Q9P0U3). Description: human SENP1 catalytic domain inhibitors, primary screen, biochemical, FRET, uHTS (AID 624204).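 Note: 0% = enzyme with DMSO and 100% = no enzyme wells.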 Particulars: recombinant SENP1 catalytic domain, CyPet-SUMO1-YPet FRET cleavage; at 10 µM; hits give high values.
As for `CP(=O)(NC(=O)Nc1ccccc1)Oc1ccccc1` (centres undefined), the inhibition (as a rule, the relative decrease from the control value, in per cent) was inactive: 0.809%. Next, `CCc1ccc(OP(C)(=O)N2CCN(c3ccc([N+](=O)[O-])cc3)CC2)cc1` (centres undefined): inactive: -14.6%. Turning to `Cc1cc(C)cc(OP(C)(=O)Nc2ccc(SC(F)(F)F)cc2)c1` (centres undefined), the inhibition is inactive: 0.493%. Next, `Cc1cccc(C)c1OP(C)(=O)Nc1ccc(SC(F)(F)F)cc1` (centres undefined): inactive: 2.8%; `Cc1ccc(Nc2c([N+](=O)[O-])cc([N+](=O)[O-])cc2[N+](=O)[O-])cc1`: inactive: 7.18%. As to `CP(=O)(Nc1ccc(SC(F)(F)F)cc1)Oc1ccc(Cl)cc1` (centres undefined), the inhibition is inactive: 0.815%. In the case of `CP(=O)(Oc1ccccc1)OC(c1ccccc1)C(F)(F)F` (centres undefined) it was inactive: 1.58%. In the case of `CP(=O)(Nc1ccccn1)Oc1ccc(Cl)cc1` (centres undefined) it was inactive: -0.307%; in that of `CCOC(=O)c1ccc(NP(C)(=O)Oc2ccc(OC)cc2)cc1` (centres undefined), inactive: 6.17%. On to `O=[N+]([O-])c1cc([N+](=O)[O-])c(O)c([N+](=O)[O-])c1.c1ccc(Oc2ccncc2)cc1`, for which the inhibition is inactive: 2.83%. In the case of `CCOP(C)(=S)SCC(=O)NC(C)C(=O)O` (centres undefined) it was inactive: 0.228%; in that of `CP(=O)(Nc1ccccc1Br)Oc1ccccc1` (centres undefined), inactive: 2.04%.

Take `COc1ccccc1OP(C)(=O)Nc1ccccc1` (centres undefined): the inhibition was inactive: 0.00601%. Next, `CP(=S)(Nn1cnnc1)Oc1ccccc1` (centres undefined): inactive: 2.33%; `O=[N+]([O-])c1ccc2c(c1)C=Nc1ccccc1O2`: inactive: 5.44%; `CC(C)(C)c1ccc(OP(C)(=O)Nc2ccc(SC(F)(F)F)cc2)cc1` (centres undefined): inactive: 1.99%.

`Cc1cccc(C)c1OP(C)(N)=O` (centres undefined): the inhibition is inactive: -0.17%. Next, `O=[N+]([O-])c1cc([N+](=O)[O-])c(Nc2cccnc2)c([N+](=O)[O-])c1`: inactive: 3.23%; `Cc1cc(C)cc(OP(C)(N)=O)c1` (centres undefined): inactive: 0.188%.

Consider `COc1ccccc1OP(C)(=O)Nc1cc(Cl)ccc1C` (centres undefined), for which the inhibition is inactive: 0.63%.

Consider `COc1ccc(OP(C)(=O)Nc2cccc(F)c2)cc1` (centres undefined), for which the inhibition was inactive: 1.28%. Next, `COc1ccccc1OP(C)(=O)Nc1ccc(C)cc1` (centres undefined): inactive: 1.03%.

Turning to `Cc1ccc(NP(C)(=O)Oc2ccccc2)c(C)c1` (centres undefined), the inhibition was inactive: 1.66%. In the case of `CCOC(=O)c1ccc(NP(C)(=O)Oc2ccccc2)cc1` (centres undefined), the inhibition is inactive: -0.669%.

Consider `CCN(CC)CCCOC(=O)C(O)(c1ccccc1)c1ccccc1`, for which the inhibition is inactive: -0.35%. As for `COc1ccccc1-c1ccccn1.O=[N+]([O-])c1cc([N+](=O)[O-])c(O)c([N+](=O)[O-])c1`, the inhibition was inactive: 1.84%. Next, `CCOC(=O)c1ccc(NP(C)(=O)Oc2cc(C)cc(C)c2)cc1` (centres undefined): inactive: 1.16%; `Cc1cc(C)cc(OP(C)(=O)Nc2ccc(C)cc2C)c1` (centres undefined): inactive: 1.69%.

For the molecule `COc1ccccc1OP(C)(=O)Nc1cccc(Br)c1` (centres undefined), the inhibition is inactive: 2%. Regarding `Cc1ccc(C)c(NP(C)(=O)Oc2ccccc2)c1` (centres undefined), the inhibition is inactive: 0.0224%. As for `Cc1cc(C)cc(OP(C)(=O)Nc2ccccn2)c1` (centres undefined), the inhibition is inactive: 0.753%. `CP(=O)(Nc1cccc(Br)c1)Oc1ccccc1` (centres undefined): the inhibition is inactive: 1.22%. In the case of `O=C(O)c1cccc(Nc2c([N+](=O)[O-])cc([N+](=O)[O-])cc2[N+](=O)[O-])c1` it was inactive: 7.57%; in that of `CC1=NCCc2c1[nH]c1ccccc21.O=[N+]([O-])c1cc([N+](=O)[O-])c(O)c([N+](=O)[O-])c1`, inactive: -3.32%. Next, `CC1=C2N=C(C=C3N=C(C(C)=C4[N-][C@@](C)([C@@H]5N=C1[C@](C)(CCC(=O)NC[C@@H](C)OP(=O)([O-])O[C@H]1[C@@H](O)[C@@H](n6cnc7cc(C)c(C)cc76)O[C@@H]1CO)[C@H]5CC(N)=O)[C@@](C)(CC(N)=O)[C@@H]4CCC(N)=O)[C@@](C)(CC(N)=O)[C@@H]3CCC(N)=O)C(C)(C)[C@@H]2CCC(N)=O.[C-]#N.[Co+3]`: inactive: 20.5%; `O=[N+]([O-])c1cc([N+](=O)[O-])c(Nc2nnnn2CCO)c([N+](=O)[O-])c1`: inactive: 1.7%; `CCOC(=O)C(CC)C1=NC(C)(C)Cc2ccccc21.O=[N+]([O-])c1cc([N+](=O)[O-])c(O)c([N+](=O)[O-])c1` (centres undefined): inactive: 0.494%.

With `COc1ccc(-c2ccccn2)cc1.O=[N+]([O-])c1cc([N+](=O)[O-])c(O)c([N+](=O)[O-])c1`, the inhibition is inactive: 0.4%.

With `CCCOc1ccc(NP(C)(=O)Oc2ccc(Cl)cc2)cc1` (centres undefined), the inhibition is inactive: -1.13%. Next, `CP(=O)(Nc1ccc(SC(F)(F)F)cc1)Oc1ccccc1` (centres undefined): inactive: 1.43%. For `CN1CCCCC1COC(=O)C1(O)c2ccccc2CCc2ccccc21` (centres undefined), the inhibition was inactive: 1.19%. As for `CN(Cc1cccnc1)C(=O)COc1ccc(Cl)c(Cl)c1.O=[N+]([O-])c1cc([N+](=O)[O-])c(O)c([N+](=O)[O-])c1`, the inhibition was inactive: 0.972%. Next, `O=[N+]([O-])c1cc([N+](=O)[O-])c(-n2nnc3ccccc32)c([N+](=O)[O-])c1`: inactive: -3.15%. In the case of `Cc1nc2ccc3ccccc3c2s1.O=[N+]([O-])c1cc([N+](=O)[O-])c(O)c([N+](=O)[O-])c1`, the inhibition was inactive: -0.975%. Take `O=[N+]([O-])c1cc([N+](=O)[O-])c(-c2cnn(-c3ccccc3)c2)c([N+](=O)[O-])c1`: the inhibition was inactive: 2.34%. In the case of `CCOP(C)(=S)SCC(=O)NC(C)(CC)C(=O)O` (centres undefined) it was inactive: 2.73%; in that of `CP(=O)(Nc1ccc(SC(F)(F)F)cc1)Oc1ccc(F)cc1` (centres undefined), inactive: 0.625%; in that of `Cc1ccccc1NP(C)(=O)Nc1ccccc1C`, inactive: 2.79%. In the case of `O=[N+]([O-])c1cc([N+](=O)[O-])c(C(F)(F)F)c([N+](=O)[O-])c1O` it was inactive: 2.23%; in that of `CP(=O)(Nc1ccc2c(c1)OCCO2)Oc1ccccc1` (centres undefined), inactive: 1.66%. In the case of `CN(C)CCOC(=O)C(O)(c1ccccc1)C1CCCCC1` (centres undefined) it was inactive: 1.74%; in that of `COc1ccc(NP(C)(=O)Oc2ccccc2OC)cc1` (centres undefined), inactive: 0.884%. As to `COc1ccc(OP(C)(=O)Nc2cccc(Br)c2)cc1` (centres undefined), the inhibition was inactive: 0.437%. Next, `Cc1c(C(c2ccc3c(c2)OCO3)c2c(C)n(C)n(-c3ccccc3)c2=O)c(=O)n(-c2ccccc2)n1C.O=[N+]([O-])c1cc([N+](=O)[O-])c(O)c([N+](=O)[O-])c1`: inactive: 3.69%.
